The text below walks through data of ChEMBL document CHEMBL4819136, “Design and synthesis of garlic-related unsymmetrical thiosulfonates as potential Alzheimer's disease therapeutics: In vitro and in silico study” (Bioorg Med Chem, 2021).

Amino acid sequences for entries named in this document (tags omitted).
UniProt P06276, whole entry: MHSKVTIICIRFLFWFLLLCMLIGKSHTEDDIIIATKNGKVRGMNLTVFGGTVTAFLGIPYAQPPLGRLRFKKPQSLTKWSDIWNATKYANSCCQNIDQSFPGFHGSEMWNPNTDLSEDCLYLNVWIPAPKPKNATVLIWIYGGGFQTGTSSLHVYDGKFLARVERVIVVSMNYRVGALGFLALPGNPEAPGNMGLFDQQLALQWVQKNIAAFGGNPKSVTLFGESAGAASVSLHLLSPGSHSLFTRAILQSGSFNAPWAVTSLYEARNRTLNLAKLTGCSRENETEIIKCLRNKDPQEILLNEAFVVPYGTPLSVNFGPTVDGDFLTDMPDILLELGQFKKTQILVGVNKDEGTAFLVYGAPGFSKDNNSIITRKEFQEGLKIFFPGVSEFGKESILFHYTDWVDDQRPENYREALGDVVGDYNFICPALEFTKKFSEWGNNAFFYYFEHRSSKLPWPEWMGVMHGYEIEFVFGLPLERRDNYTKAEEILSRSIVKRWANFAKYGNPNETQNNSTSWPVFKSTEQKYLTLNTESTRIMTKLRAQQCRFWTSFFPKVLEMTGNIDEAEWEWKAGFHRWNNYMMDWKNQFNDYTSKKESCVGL

pIC50: −log10 of the molar value.

In the test the target is Cholinesterase (Homo sapiens, UniProt P06276). In words: Inhibition of human serum BuChE using butyrylthiocholine iodide as substrate preincubated with enzyme for 10 mins followed by substrate addition and measured by Ellman's method. The test is classed as cell-free. A general note: DTNB colorimetry detects thiols as they appear.

In turn, `CCN(C)C(=O)Oc1cccc([C@H](C)N(C)C)c1` [RIVASTIGMINE] had a pIC50 of 7.84.

A word on the pIC50: it is the IC50 on a negative log10 scale, so that one unit is a factor of ten.
